The results in this text go back to patent publication US6365617B1, “Indole and indazole urea-peptoids as thrombin receptor antagonists” (Ortho-McNeil Pharmaceutical, Inc., priority 1999, dated 2002).

Amino acid sequences for entries named in this document (tags omitted). Residues count along the entry.
UniProt P25116, 22-425 limits assumed: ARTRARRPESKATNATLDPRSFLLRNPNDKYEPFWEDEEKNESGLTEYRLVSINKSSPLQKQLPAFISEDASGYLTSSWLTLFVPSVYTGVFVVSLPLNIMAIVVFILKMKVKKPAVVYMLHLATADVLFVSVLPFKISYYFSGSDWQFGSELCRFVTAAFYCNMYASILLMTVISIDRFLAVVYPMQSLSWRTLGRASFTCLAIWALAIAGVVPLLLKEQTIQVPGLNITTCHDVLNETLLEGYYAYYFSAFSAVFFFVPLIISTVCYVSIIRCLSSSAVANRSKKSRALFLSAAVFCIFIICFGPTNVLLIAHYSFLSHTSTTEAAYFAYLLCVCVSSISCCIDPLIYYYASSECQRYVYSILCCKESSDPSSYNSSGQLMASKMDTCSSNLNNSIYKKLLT

The test system of experiment [1] is gel-filtered platelets (thrombin-induced aggregation). The experiment is described as follows: In vitro inhibition of thrombin-induced gel-filtered platelet aggregation assay. The following applies: read-out: GFP Aggr. IC50; Table 1; platelet aggregation stimulated by thrombin, gel-filtered human platelets. On the procedure: In Vitro Inhibition Of Thrombin-induced Gel-filtered Platelet Aggregation Assay
The percentage of platelet aggregation is calculated as an increase in light transmission of compound-treated platelet concentrate vs. control-treated platelet concentrate. Human blood is obtained from drug free, normal donors in tubes containing 0.13M sodium citrate. Platelet rich plasma (PRP) is collected by centrifugation of whole blood at 200×g for 10 min at 25° C. The PRP (5 mL) is gel filtered through Sepharose 2B (bed volume 50 mL), and the platelet count is adjusted to 2×10^7 platelets per sample. The following constituents are added to a siliconized cuvette: concentrated platelet filtrate and Tyrode's buffer (0.14M NaCl, 0.0027M KCl, 0.012M NaHCO3, 0.76 mM Na2HPO4, 0.0055M glucose, 2 mg/mL BSA and 5.0 mM HEPES @ pH 7.4) in an amount equal to 350 μL, 50 μL of 20 mM calcium and 50 μL of the test compound. Aggregation is monitored in a BIODATA aggregometer for the 3 min following the addition of agonist (thrombin 50 μL of 1 unit/mL).

The target in experiment [2] is thrombin receptor (PAR-1) (Homo sapiens, UniProt P25116). The experiment is described as follows: In vitro thrombin receptor binding assay (CHRF membranes, tritiated 721-40). The conditions noted are these: read-out: Recptr Bdg. IC50, Table 1. On the procedure: In Vitro Thrombin Receptor Binding Assay
CHRF membranes (Jones, Biochim. Biophys. Acta 1992, 1136, 272) are thawed from −70° C., centrifuged at maximum speed for 5 min, washed twice with binding buffer (50 mM HEPES containing 5 mM MgCl2 and 0.1% BSA), and re-suspended in binding buffer ([…]). 100 μL of membranes are added to the 24-Wallac plates and delivered to the Tomtech apparatus. In a typical experiment, 6 μL of samples (from a 125 μg/mL intermediary plate, 20% DMSO) and 44 μL buffer are delivered to the plates (final conc. of compounds is 3.7 μg/mL, 0.6% DMSO). Similarly, 6 μL 20% DMSO and 44 μL buffer are delivered to both column 1 (NSB) and column 12 (TB). 10 μL Ser-pFPhe-Har-Leu-Har-Lys-Tyr-NH2 (721-40; 500 μM in deionized water) is added to column 1. 50 μL tritiated 721-40 (specific activity 46 Ci/mmol) is added to all the wells. The plates are mixed well for 20 seconds, incubated for 30 min, and then harvested with 10 mM HEPES/138 mM NaCl using the Skatron harvester. The filters (GF/C Brandel FPXLR 296) are presoaked 3 h in 0.5% polyethylenimine in HEPES/0.1M N-acetylglucosamine) are set in saran wrap and dried for 3 min in the microwave, and placed in sample bags (Wallac 1450-432). 4.5 mL scintillation fluid (Wallac, Betaplate Scint 1205-440) is added. The bags are sealed, placed in filter cassettes (Wallac 1450-104), and analyzed on the microbeta counter.

Regarding `NCCCCN(Cc1ccncc1)C(=O)[C@H](Cc1ccc(F)c(F)c1)NC(=O)Nc1ccc2c(CN3CCCC3)cn(Cc3c(Cl)cccc3Cl)c2c1`, the IC50 was 0.51 µM in experiment [1] and 0.1 µM in experiment [2].
For `NCCNC(=O)[C@H](Cc1ccc(F)c(F)c1)NC(=O)Nc1ccc2c(CN3CCCC3)cn(Cc3c(Cl)cccc3Cl)c2c1`, in that order: 0.99 µM and 0.07 µM.
On the same counts, the results for `NCCCN(Cc1ccncc1)C(=O)[C@H](Cc1ccc(F)c(F)c1)NC(=O)Nc1ccc2c(CN3CCCC3)cn(Cc3c(Cl)cccc3Cl)c2c1` are 0.4 µM and 29 µM.
On the same counts, the results for `NCCCNC(=O)[C@H](Cc1ccc(F)c(F)c1)NC(=O)Nc1ccc2c(CN3CCCC3)nn(Cc3c(Cl)cccc3Cl)c2c1` are 0.26 µM and 0.1 µM.
For the compound `NCCCN(CC1CCCCC1)C(=O)[C@H](Cc1ccc(F)c(F)c1)NC(=O)Nc1ccc2c(CN3CCCC3)cn(Cc3c(Cl)cccc3Cl)c2c1`, the IC50 was found to be 1 µM in experiment [1] and 8.8 µM in experiment [2].
On the same counts, the results for `NCCCCNC(=O)[C@H](Cc1ccc(F)c(F)c1)NC(=O)Nc1ccc2c(CN3CCCC3)cn(Cc3c(Cl)cccc3Cl)c2c1` are 1.7 µM and 0.1 µM.

What is called IC50 is the concentration that inhibits the measured activity by half.
